Earlier results as cited in publication PMC6028903, “Solubility Thermodynamics of CyMe 4 -BTBP in Various Diluents Mixed with TBP” (Journal of Solution Chemistry, 2018).
Marks after values point to notes of the source that are not given here.

What was measured:
[1] = literature; cited from earlier work
[2] = literature; cited from earlier work; remark: listed apart in the source
[3] = literature; cited from earlier work; remark: listed apart in the source
[4] = 298 K; cited from earlier work

## CCCCOP(=O)(OCCCC)OCCCC
[1]
  Flash point: 419 KC^e
[2]
  Density: 0.97^b g · cm ^-3
[3]
  Surface tension: 27.6^c mN · m ^-1
[4]
  Solvent in water: 0.039^b wt%
  Water in solvent: 4.67^b wt%
